Common to all, as to settings: converted from pIC50 with Cheng-Prusoff equation
One assay has as its target JAK1 (Homo sapiens (Human), UniProt P23458). In words: Biochemical JAK kinase assay (LanthaScreen), JAK1. The protocol: (§1) Assay 1: Biochemical JAK Kinase Assays
(§2) A panel of four LanthaScreen JAK biochemical assays (JAK1, 2, 3 and Tyk2) were carried in a common kinase reaction buffer (50 mM HEPES, pH 7.5, 0.01% Brij-35, 10 mM MgCl2, and 1 mM EGTA). Recombinant GST-tagged JAK enzymes and a GFP-tagged STAT1 peptide substrate were obtained from Life Technologies.
(§3) Serially diluted compounds were pre-incubated with each of the four JAK enzymes and the substrate in white 384-well microplates (Corning) at ambient temperature for 1 h. ATP was subsequently added to initiate the kinase reactions in 10 μL total volume, with 1% DMSO. […] The plates were allowed to incubate at ambient temperature for 1 h before being read on the EnVision reader (Perkin Elmer).
(§4) For dose-response analysis, percent inhibition data were plotted vs. compound concentrations, and IC50 values were determined from a 4-parameter robust fit model with the Prism software (GraphPad Software). Results were expressed as pIC50 (negative logarithm of IC50) and subsequently converted to pKi (negative logarithm of dissociation constant, Ki) using the Cheng-Prusoff equation.
For orientation: TR-FRET usually uses a lanthanide donor and a delayed reading to cut background.

The chains behind the UniProt entries cited, without tags or fusion partners. Where a name states a change or a piece, a line headed by the entry shows the natural chain unless it says otherwise.
UniProt P23458: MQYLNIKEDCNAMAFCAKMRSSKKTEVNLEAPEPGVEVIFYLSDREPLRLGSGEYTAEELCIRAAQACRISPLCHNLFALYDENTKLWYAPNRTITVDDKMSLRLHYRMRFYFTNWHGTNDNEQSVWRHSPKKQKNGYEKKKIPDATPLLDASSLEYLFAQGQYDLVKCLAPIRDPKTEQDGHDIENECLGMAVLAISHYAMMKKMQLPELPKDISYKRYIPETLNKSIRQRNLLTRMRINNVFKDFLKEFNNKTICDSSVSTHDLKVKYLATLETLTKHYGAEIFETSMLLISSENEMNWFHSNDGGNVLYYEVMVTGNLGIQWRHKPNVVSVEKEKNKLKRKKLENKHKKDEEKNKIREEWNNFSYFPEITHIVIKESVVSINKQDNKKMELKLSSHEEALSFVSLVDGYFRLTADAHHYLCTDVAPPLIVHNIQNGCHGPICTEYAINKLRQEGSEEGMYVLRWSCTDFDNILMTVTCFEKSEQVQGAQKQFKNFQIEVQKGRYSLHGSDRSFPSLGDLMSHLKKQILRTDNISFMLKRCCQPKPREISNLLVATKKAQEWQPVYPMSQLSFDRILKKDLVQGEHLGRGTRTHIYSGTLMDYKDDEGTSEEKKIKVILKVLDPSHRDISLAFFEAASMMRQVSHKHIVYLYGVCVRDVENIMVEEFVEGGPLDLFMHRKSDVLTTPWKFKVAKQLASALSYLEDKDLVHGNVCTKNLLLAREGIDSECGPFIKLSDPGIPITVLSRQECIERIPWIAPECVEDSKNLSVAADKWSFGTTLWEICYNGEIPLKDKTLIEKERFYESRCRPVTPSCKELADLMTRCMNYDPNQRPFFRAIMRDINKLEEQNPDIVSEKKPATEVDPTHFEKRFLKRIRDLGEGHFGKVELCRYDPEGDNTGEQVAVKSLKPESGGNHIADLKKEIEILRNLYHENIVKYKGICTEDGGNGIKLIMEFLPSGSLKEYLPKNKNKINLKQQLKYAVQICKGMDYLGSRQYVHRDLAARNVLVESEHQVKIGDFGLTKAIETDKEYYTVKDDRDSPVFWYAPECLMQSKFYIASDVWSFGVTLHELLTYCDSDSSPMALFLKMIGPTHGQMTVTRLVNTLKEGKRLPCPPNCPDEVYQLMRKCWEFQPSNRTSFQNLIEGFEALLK
UniProt P52333: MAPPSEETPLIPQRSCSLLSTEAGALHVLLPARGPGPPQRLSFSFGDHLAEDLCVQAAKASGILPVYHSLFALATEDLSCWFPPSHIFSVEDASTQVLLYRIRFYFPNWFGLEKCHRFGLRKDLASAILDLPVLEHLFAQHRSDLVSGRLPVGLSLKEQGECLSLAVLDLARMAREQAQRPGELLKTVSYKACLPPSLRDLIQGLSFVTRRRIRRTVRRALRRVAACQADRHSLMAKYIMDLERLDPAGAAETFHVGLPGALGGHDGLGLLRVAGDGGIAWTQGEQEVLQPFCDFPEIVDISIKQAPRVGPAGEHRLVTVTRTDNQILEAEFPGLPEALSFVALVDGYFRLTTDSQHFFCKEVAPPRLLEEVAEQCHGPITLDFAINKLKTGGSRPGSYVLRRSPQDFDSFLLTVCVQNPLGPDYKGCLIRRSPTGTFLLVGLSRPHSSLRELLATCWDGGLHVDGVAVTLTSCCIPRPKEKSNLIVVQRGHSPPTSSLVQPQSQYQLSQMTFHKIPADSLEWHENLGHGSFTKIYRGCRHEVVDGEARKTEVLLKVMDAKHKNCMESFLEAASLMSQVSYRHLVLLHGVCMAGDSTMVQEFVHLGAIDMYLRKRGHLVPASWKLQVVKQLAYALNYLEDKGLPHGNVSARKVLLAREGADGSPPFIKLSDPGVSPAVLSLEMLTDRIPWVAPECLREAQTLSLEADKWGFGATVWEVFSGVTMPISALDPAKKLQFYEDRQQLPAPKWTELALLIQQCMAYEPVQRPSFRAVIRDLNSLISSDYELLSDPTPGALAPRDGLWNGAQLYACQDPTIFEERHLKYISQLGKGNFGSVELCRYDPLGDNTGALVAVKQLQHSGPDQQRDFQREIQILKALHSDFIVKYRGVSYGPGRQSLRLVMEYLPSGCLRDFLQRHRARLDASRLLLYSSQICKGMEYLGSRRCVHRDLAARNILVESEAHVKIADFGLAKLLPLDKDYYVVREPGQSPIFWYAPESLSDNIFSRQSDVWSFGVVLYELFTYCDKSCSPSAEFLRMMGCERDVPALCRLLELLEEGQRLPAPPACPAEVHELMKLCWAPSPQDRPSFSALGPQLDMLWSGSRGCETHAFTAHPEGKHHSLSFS
UniProt P29597: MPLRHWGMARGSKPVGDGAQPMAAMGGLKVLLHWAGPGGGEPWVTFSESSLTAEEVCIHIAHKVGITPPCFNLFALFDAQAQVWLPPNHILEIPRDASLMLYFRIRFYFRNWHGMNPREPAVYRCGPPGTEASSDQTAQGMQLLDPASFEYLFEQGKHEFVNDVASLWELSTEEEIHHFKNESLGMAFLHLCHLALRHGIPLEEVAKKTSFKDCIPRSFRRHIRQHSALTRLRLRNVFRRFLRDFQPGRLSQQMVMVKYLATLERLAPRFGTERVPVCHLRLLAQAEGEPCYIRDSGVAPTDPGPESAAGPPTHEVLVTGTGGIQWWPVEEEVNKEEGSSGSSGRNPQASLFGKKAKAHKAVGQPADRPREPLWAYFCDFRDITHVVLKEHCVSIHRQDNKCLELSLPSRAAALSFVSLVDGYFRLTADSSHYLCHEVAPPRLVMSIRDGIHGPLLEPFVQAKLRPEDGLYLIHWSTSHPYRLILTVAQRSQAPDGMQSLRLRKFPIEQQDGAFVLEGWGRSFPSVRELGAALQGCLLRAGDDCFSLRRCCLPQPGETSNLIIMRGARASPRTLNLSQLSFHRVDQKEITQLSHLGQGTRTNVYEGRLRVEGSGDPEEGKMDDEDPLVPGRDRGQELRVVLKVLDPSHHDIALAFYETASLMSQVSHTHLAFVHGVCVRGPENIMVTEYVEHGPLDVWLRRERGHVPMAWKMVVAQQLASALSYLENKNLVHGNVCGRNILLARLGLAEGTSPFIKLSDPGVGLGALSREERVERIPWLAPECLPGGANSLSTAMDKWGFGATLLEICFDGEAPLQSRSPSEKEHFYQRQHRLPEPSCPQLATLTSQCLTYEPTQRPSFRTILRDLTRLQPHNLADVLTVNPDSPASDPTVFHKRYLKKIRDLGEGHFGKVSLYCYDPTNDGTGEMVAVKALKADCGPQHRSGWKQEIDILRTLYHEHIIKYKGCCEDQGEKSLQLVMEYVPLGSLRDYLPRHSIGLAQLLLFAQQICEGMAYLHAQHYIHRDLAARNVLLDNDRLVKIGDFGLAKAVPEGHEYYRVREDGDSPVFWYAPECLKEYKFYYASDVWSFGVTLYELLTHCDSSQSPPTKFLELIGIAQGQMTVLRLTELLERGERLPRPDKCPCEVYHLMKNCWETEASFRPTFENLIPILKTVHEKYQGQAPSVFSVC

Another assay concerns the target JAK3 (Homo sapiens (Human), UniProt P52333). In words: Biochemical JAK kinase assay (LanthaScreen), JAK3. The protocol: as §1, §2, §3, §4
In the next assay the target is Tyk2 (Homo sapiens (Human), UniProt P29597). Kind of assay: Biochemical JAK kinase assay (LanthaScreen), Tyk2. The method, then:
as §1, §2, §3, §4

By Ki is commonly meant a measure of affinity in units of concentration, obtained from inhibition or displacement. High values mean weaker binding, low ones tighter binding.

`CCc1cc(O)c(F)cc1-c1ccc2c(-c3nc4c([nH]3)CN(CC)C(C(=O)N3CC(N5CCCCC5)C3)C4)n[nH]c2c1` (racemic) [Example 8-4]: the Ki on JAK1 worked out at 0.06 nM; on JAK3 it was 0.13 nM.

Consider `CCCN1Cc2[nH]c(-c3n[nH]c4cc(-c5cc(F)c(O)cc5CC)ccc34)nc2C[C@H]1C(=O)N1CC(C)(N(C)C)C1` [Example 8, (S)-(3-(dimethylamino)-3-methylazetidin-1-yl)(2-(6-(2-ethyl-5-fluoro-4-hydroxyphenyl)-1H-indazol-3-yl)-5-propyl-4,5,6,7-tetrahydro-3H-imidazo[4,5-c]pyridin-6-yl)methanone], for which the results for the inhibition constant (Ki) on JAK1 and at JAK3 were 0.06 nM and 0.16 nM, respectively.

`CCc1cc(O)c(F)cc1-c1ccc2c(-c3nc4c([nH]3)CN(C)[C@H](C(=O)N3CC(N5CCCCC5)C3)C4)n[nH]c2c1` [Example 8-1] returned an inhibition constant Ki at JAK3 of 0.18 nM. In other words, the sub-nanomolar range.

`CCc1cc(O)c(F)cc1-c1ccc2c(-c3nc4c([nH]3)CN(C)[C@H](C(=O)N3CC(N(C)C)C3)C4)n[nH]c2c1` [Example 8-2] gave an inhibition constant Ki at JAK3 of 0.25 nM.

As for `CCCN1Cc2[nH]c(-c3n[nH]c4cc(-c5cc(F)c(O)cc5CC)ccc34)nc2C[C@H]1C(=O)N1CC(N2CCCCC2)C1` [Example 8-5], at JAK1, affinity was put at a Ki of 0.08 nM.

For `CCc1cc(O)c(F)cc1-c1ccc2c(-c3nc4c([nH]3)CN(C(C)C)[C@H](C(=O)N3CC(N5CCCCC5)C3)C4)n[nH]c2c1` [Example 8-6], at JAK3, the Ki was determined as 0.25 nM.

The molecule `CCc1cc(O)c(F)cc1-c1ccc2c(-c3nc4c([nH]3)CN(CC)C(C(=O)N3CC(C)(N(C)C)C3)C4)n[nH]c2c1` (stereo not drawn) [Example 8-10] registered a Ki on JAK3 of 0.32 nM.

In the case of `CCCN1Cc2[nH]c(-c3n[nH]c4cc(-c5cc(F)c(O)cc5CC)ccc34)nc2CC1C(=O)N1CC(C)(N(C)C)C1` (stereo not drawn) [Example 8-11], the figures for the inhibitory constant (Ki) on JAK1 and at JAK3 were 0.1 nM and 0.32 nM, respectively.

As to `CCc1cc(O)c(F)cc1-c1ccc2c(-c3nc4c([nH]3)CN(C(C)C)C(C(=O)N3CC(C)(N(C)C)C3)C4)n[nH]c2c1` (stereo not drawn) [Example 8-12], the affinity at JAK3 corresponds to a Ki of 0.25 nM. This lies in the sub-nanomolar range.

Molecule `CCc1cc(O)c(F)cc1-c1ccc2c(-c3nc4c([nH]3)CN(CC)[C@H](C(=O)N3CC(N5CCCCC5)C3)C4)n[nH]c2c1` [Example 8-14, (S)-(5-ethyl-2-(6-(2-ethyl-5-fluoro-4-hydroxyphenyl)-1H-indazol-3-yl)-4,5,6,7-tetrahydro-3H-imidazo[4,5-c]pyridin-6-yl)(3-(piperidin-1-yl)azetidin-1-yl)methanone] showed a Ki at JAK3 of 0.2 nM.

Consider `CCc1cc(O)c(F)cc1-c1ccc2c(-c3nc4c([nH]3)CN(CC)[C@@H](C(=O)N3CC(N5CCCCC5)C3)C4)n[nH]c2c1` [Example 8-15], for which the Ki at Tyk2 and on JAK3 was 0.4 nM in each case.

The molecule `CCc1cc(O)c(F)cc1-c1ccc2c(-c3nc4c([nH]3)CN(C(C)C)[C@@H](C(=O)N3CC(N(C)C)C3)C4)n[nH]c2c1` [Example 8-17] gave a Ki on JAK1 of 0.05 nM.

Take `CCCN1Cc2[nH]c(-c3n[nH]c4cc(-c5cc(F)c(O)cc5CC)ccc34)nc2C[C@@H]1C(=O)N1CC(C)(N(C)C)C1` [Example 8-19]: the Ki at JAK1 turned out to be 0.06 nM; on JAK3 it was 0.2 nM.

`CCc1cc(O)c(F)cc1-c1ccc2c(-c3nc4c([nH]3)CN(CC)[C@@H](C(=O)N3CC(N(C)C)C3)C4)n[nH]c2c1` [Example 8-20] yielded an inhibition constant (Ki) on JAK1 of 0.05 nM.

For `CCc1cc(O)c(F)cc1-c1ccc2c(-c3nc4c([nH]3)CN(CC)[C@@H](C(=O)N3CC(C)(N(C)C)C3)C4)n[nH]c2c1` [Example 8-21], the Ki was 0.05 nM on JAK1 and 0.25 nM at JAK3.

`CCc1cc(O)c(F)cc1-c1ccc2c(-c3nc4c([nH]3)CN(CC)[C@H](C(=O)N3CC(N(C)C)C3)C4)n[nH]c2c1` [Example 8-22, (S)-(3-(dimethylamino)azetidin-1-yl)(5-ethyl-2-(6-(2-ethyl-5-fluoro-4-hydroxyphenyl)-1H-indazol-3-yl)-4,5,6,7-tetrahydro-3H-imidazo[4,5-c]pyridin-6-yl)methanone]: at JAK1, the Ki was 0.06 nM.

Consider `CCc1cc(O)c(F)cc1-c1ccc2c(-c3nc4c([nH]3)CN(CC)[C@H](C(=O)N3CC(C)(N(C)C)C3)C4)n[nH]c2c1` [Example 8-23, (S)-(3-(dimethylamino)-3-methylazetidin-1-yl)(5-ethyl-2-(6-(2-ethyl-5-fluoro-4-hydroxyphenyl)-1H-indazol-3-yl)-4,5,6,7-tetrahydro-3H-imidazo[4,5-c]pyridin-6-yl)methanone], for which the Ki at JAK1 is 0.05 nM; at JAK3 it was 0.2 nM.
